From patent publication US7049331B2, “1,2,4-thiadiazole derivatives as melanocortin receptor modulators” (Ortho-McNeil Pharmaceutical, Inc., priority 2001, dated 2006) come the findings set out here.

SMILES strings stand for the structures.

The subject of the assay is human sebocytes. The experiment in a line: Evaluation of Sebaceous Lipid Synthesis by Sebaceous Cells (14C acetate, HPTLC). The format is cell-based. Conditions: Cholera toxin & Bovine pituitary extract; for % Inh Triglyceride synthesis: Cell Sex F/M.

As to `COc1ccccc1-c1nc(Nc2ccccc2)s[n+]1-c1ccccc1OC.[Br-]` [Compound 74, 2-(2-methoxyphenyl)-3-(2-methoxyphenyl)-5-phenylamino-[1,2.4]thiadiazol-2-ium], the “% Inh Triglyceride synthesis” value is reported as 0% (0.4 μM) and 0% (0.6 μM). Also, the “% Inh Cholesterol ester synthesis” value (0.4 μM, Cell Sex F) came out at 85%; the “% Inh Cholesterol ester synthesis” value (0.4 μM, Cell Sex M) stood at 64%; the “% Inh Cholesterol ester synthesis” value (0.6 μM, Cell Sex F) amounted to 88%; the “% Inh Cholesterol ester synthesis” value (0.6 μM, Cell Sex M) was 76%. The “% Inh Wax ester synthesis” value runs as follows: (0.4 μM, Cell Sex F) 70%; (0.4 μM, Cell Sex M) 50%; (0.6 μM, Cell Sex F) 67%; (0.6 μM, Cell Sex M) 42%. In addition, the “% Inh Unknown lipid synthesis” value (0.6 μM, Cell Sex F) is on record as 85/80%.
